# Test results as given in US12606559B2, “JAK inhibitor compounds, methods for synthesizing same and use thereof” (GALDERMA HOLDING SA, priority 2020, dated 2026).
# How the values were obtained:
# [1] = system: IL-6 induced p-STAT3Y705 in skin; assay: In vivo pharmacodynamy model: IL-6 induced Phospho-STAT3, topical; design: species or system BALB/c ByJ Rj mice; settings: topical 1 mM, vehicle PG/EtOH 3/7
# [2] = Human skin ex vivo: flux through skin and dermis concentration (Franz cells); format: in vitro ADME; settings: PG/H2O cream 1 mg/mL
# Protocol: Flux through skin and dermis concentration were measured during 6-24 h (ng/cm^2/h) after disposition of the test compound 2.7 mM in PG/H2O cream 1 mg/mL. Human dermatomed skin (frozen), 350-500 m thick were used in diffusion cells system Franz cells 1.76 cm^2 maintained at 32±1° C. after equilibration. Skin integrity was confirmed by TEWL<20 g/m^2/h. 3 donors were used for each test. The compound was formulated in modified aqueous British pharmacopoeia cream pH6 PG 14% and applied 5 mg/cm^2 by weighing. Receptor fluid containing 4% BSA in PBS 10 mM was maintained under agitation and was sampled along with dermis sampled at 6 h and 24 h after exposure. 5 Strips were used to remove carefully the excess of formulation and were not dosed.
structure (smiles),measurement,setting,value
"N#CC[C@H](C1CCCC1)n1cc(-c2ncnc3[nH]ccc23)cn1 [Ruxolitinib, reference compound]",PD/IL6 mouse top @1 mM % inh vs vehicle,[1],60%
same,dermis concentration,[2],1.9 µM
